## Measured affinities in a library of Ab-14 light chain variants

Reference: Li et al. 2023, doi:10.1038/s41467-023-39022-2. File: FLAb, binding data.

All variants were tested on one target, the spike HR2 peptide PDVDLGDISGINAS (SARS-CoV-2).

The variants keep the heavy chain, the linker and the frameworks of Ab-14 (scFv order VH, three GGGGS repeats, VL).
VH: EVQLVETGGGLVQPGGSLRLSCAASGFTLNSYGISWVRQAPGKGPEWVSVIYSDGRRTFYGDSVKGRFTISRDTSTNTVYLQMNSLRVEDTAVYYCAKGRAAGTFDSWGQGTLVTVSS
VL: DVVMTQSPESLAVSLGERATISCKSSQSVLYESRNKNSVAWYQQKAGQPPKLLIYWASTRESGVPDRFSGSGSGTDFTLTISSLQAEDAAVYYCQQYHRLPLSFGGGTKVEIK

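The starting antibody came from a phage panning campaign against this peptide. This is the validation round: designs drawn from the data on random variants, tested in the same kind of assay. Their group label is 14L_En_Gen (En: ensemble of fine-tuned language models; Gen: genetic algorithm). The scFvs were displayed on barcoded MATa yeast, the peptide on MATalpha yeast. The frequency of each diploid, read from paired DNA barcodes, reflects how well the two displayed proteins bind. Each replicate has its own calibration line, from reference interactions of the BCL2 family. Each pool was mated in six replicate cultures.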

The parent's light chain CDRs are KSSQSVLYESRNKNSVA, WASTRES, QQYHRLPLS; each variant's own CDRs replace them letter for letter.
Scale: log10 of Kd in nM, estimated from mating counts; low values are strong binders.
"n.d." means that the variant was in the library but no mating with the target was seen in that replicate; the authors take this as a sign of poor binding, and no number exists.
A sequence measured in both rounds can read differently, since the two assays cover different ranges.
The parent sequence was in this pool as ten entries: three were never detected, three once, and four in most replicates, with averages from 0.34 to 2.37.
The authors averaged sequences with at least three values out of six and counted those with two or fewer as poor binders.
Nonspecific signal, from three strains lacking the peptide, appeared in 4% of pairings of all light chain designs, centred on 2.64 (5% of these signals below 1.59); values are not corrected for it. Also given: how often the same scFv was detected with the empty control strains, with their mean in brackets.

| # | CDR-L1 | CDR-L2 | CDR-L3 | log10 Kd, replicates | signal with controls |
|---|---|---|---|---|---|
| 1 | MISQLMNMGTFAINSVA | QASIRNA | QQYDRLPLI | 1.08 n.d. n.d. 3.25 0.68 1.34 | 1 of 18 (2.55) |
| 2 | MISQLMNMGQFAINSVA | QATIRND | QQYDRLPLI | 2.80 2.37 n.d. 2.47 1.96 1.36 | 0 of 18 |
| 3 | MISQVLNTLTRTGNNVA | DLAEREQ | QQYFRLPLS | 1.68 1.26 1.62 1.30 1.92 1.94 | 0 of 18 |
| 4 | MMSQVTGMELRQRNNVA | QTSTREA | QQYDRLPLI | 0.42 0.27 0.29 0.16 0.24 0.37 | 1 of 18 (3.11) |
| 5 | MISQLYNMGQFAINSVA | QASERNT | QQYDRLPLT | 2.14 2.15 1.87 1.45 1.66 1.84 | 0 of 18 |
| 6 | MISQLMQMGQFAINSVA | QASIRNE | QQYDRLPLD | 1.57 1.90 1.09 1.31 0.87 0.99 | 1 of 18 (3.18) |
| 7 | MIHESMGLMSHKHSSIA | DNSTREE | QQYDRLPLS | n.d. n.d. n.d. n.d. n.d. n.d. | 0 of 18 |
| 8 | MVYQAAMMGMSTRNSIA | NAQMRPD | QQYHRLPLM | 0.32 0.19 0.29 0.36 0.44 0.26 | 1 of 18 (3.43) |
| 9 | KIGMTLNQLMHQKNNVA | DLVQREN | QQYFRLPLS | 0.76 0.55 0.63 1.02 1.09 1.37 | 0 of 18 |
| 10 | KIGMSLNQLMHKKNNVA | DLVERET | QQYHRLPLS | 0.62 0.37 0.35 0.49 0.36 0.47 | 3 of 18 (2.82) |
| 11 | TLYGLTNSMSKNKDNVA | EMSTREQ | QQYDRLPLA | n.d. 1.28 1.44 3.25 n.d. 1.33 | 1 of 18 (0.97) |
| 12 | KIGMTLNQMMHKKNNVA | DLVERAN | QQYFRLPLS | 0.79 0.81 0.61 0.35 -0.05 0.95 | 0 of 18 |
| 13 | MVNGIMDHLSKNTNNVA | ETSTRNS | QQYDRLPLS | 0.59 0.61 0.68 0.59 0.55 0.73 | 3 of 18 (2.54) |
| 14 | MISQLYNMGSFAINSVA | QASERNE | QQYDRLPLI | 2.18 0.70 0.76 0.80 0.73 1.22 | 0 of 18 |
| 15 | MISQILNMGQFAINSVA | QASIRNE | QQYDRLPLT | n.d. 1.99 1.40 1.06 n.d. 2.08 | 0 of 18 |
| 16 | KLSMLMDTTRKNHNSVA | HVTTRSD | QQYNRLPFS | 0.57 0.13 0.06 -0.01 0.17 0.47 | 0 of 18 |
| 17 | TITQLTSSFSQNINNVA | EVSTRLN | QQYDRLPLA | -0.19 -0.03 -0.34 -0.58 0.42 0.45 | 0 of 18 |
| 18 | HLGLVTMLESSVRNSVA | NNSTREE | QQYDRLPLS | 1.63 2.45 1.29 1.51 2.14 1.82 | 1 of 18 (3.05) |
| 19 | MIYGAQRELGLKANSIA | DNVTRYN | QQYDRLPLS | n.d. n.d. 2.32 3.05 3.11 2.28 | 0 of 18 |
| 20 | TISGVMQQMTHSKSNVA | EVSTRLD | QQYVRLPLA | 0.46 0.72 0.43 0.44 0.63 1.38 | 0 of 18 |
| 21 | TISQMTSLFSQSINNVA | EVSTRLN | QQYDRLPLA | 0.55 0.30 0.39 0.28 0.36 0.78 | 2 of 18 (2.78) |
| 22 | KIGMTLNQLYEKANNVA | DLVTREN | QQYHRLPLS | 0.82 0.79 0.69 0.75 0.66 0.92 | 2 of 18 (2.88) |
| 23 | MISQLYNMGQFAINSVA | QASERNT | QQYDRLPLI | n.d. n.d. n.d. 2.61 n.d. n.d. | 1 of 18 (1.79) |
| 24 | KFSQMVNTMSVSKSAVA | EMSTRPE | QQYNRLPLS | 0.19 0.16 -0.14 0.15 0.20 0.25 | 1 of 18 (2.78) |
| 25 | IVSQLMLWGMHAPNSIA | EAETRIN | QQYDRLPLF | 1.69 n.d. 1.38 2.98 1.67 2.11 | 0 of 18 |
| 26 | HMSMLTLGGMRMRNSVA | QMTTREN | QQYDRLPLA | n.d. n.d. n.d. n.d. n.d. n.d. | 0 of 18 |
| 27 | MIYAANMELGRAANSIA | DNVTRYS | QQYERLPLS | 2.35 n.d. 2.76 1.97 3.12 3.87 | 1 of 18 (2.27) |
| 28 | HMSMLTLMGMRQRNSVA | QMTTREN | QQYDRLPLM | n.d. 1.58 n.d. 0.30 1.42 1.09 | 0 of 18 |
| 29 | TISQVMNTLTREGNNVA | DLQEREK | QQYFRLPLT | 1.17 1.26 1.19 1.09 1.36 0.88 | 0 of 18 |
| 30 | MISNVMNTLTRQGNNVA | DLAERER | QQYFRLPLS | 1.15 1.07 0.85 1.05 1.14 0.91 | 0 of 18 |
| 31 | HITMGMYVHGRYKSNIA | QAETREK | QQYDRLPLI | 0.82 1.27 1.10 0.68 1.30 1.58 | 0 of 18 |
| 32 | MVSQLMVWGMHARNSIA | EAEHRCN | QQYDRLPLF | n.d. n.d. n.d. n.d. n.d. n.d. | 0 of 18 |
| 33 | MVSQLMVWGMHKKNSIA | EAQTRCN | QQYDRLPLF | 3.00 2.16 2.03 2.03 2.26 1.94 | 0 of 18 |
| 34 | KLSMTHQMESVNRNSVA | ELVTRMS | QQYNRLPLS | 0.10 0.57 0.50 0.06 0.09 0.06 | 0 of 18 |
| 35 | MMSQVQGQGTRHRNNVA | QTEQREP | QQYDRLPLI | -0.02 0.34 0.46 2.30 -0.52 0.73 | 0 of 18 |
| 36 | TLGGAMLTQMHNKNSVA | DLTTRLN | QQYHRLPLS | 0.37 -0.09 0.16 0.20 -0.14 -0.18 | 0 of 18 |
| 37 | MISQLYNMGTFAINSVA | QASIRNS | QQYDRLPLI | n.d. n.d. n.d. n.d. n.d. 2.06 | 1 of 18 (1.90) |
| 38 | MVTQMAMTGMTNKRSVA | NAETRES | QQYHRLPLI | 0.50 0.28 0.17 0.27 0.44 0.32 | 0 of 18 |
| 39 | MISQLMNMGQFAINSVA | QASLRCN | QQYDRLPLE | n.d. n.d. n.d. n.d. 2.01 2.37 | 0 of 18 |

Extract of 5 entries:

| CDR-L1 | CDR-L2 | CDR-L3 | log10 Kd, replicates | signal with controls |
|---|---|---|---|---|
| MVSQLMVWGMHKKNSIA | EAQTRCN | QQYDRLPLF | 3.00 2.16 2.03 2.03 2.26 1.94 | 0 of 18 |
| MISQLMNMGQFAINSVA | QASLRCN | QQYDRLPLE | n.d. n.d. n.d. n.d. 2.01 2.37 | 0 of 18 |
| KIGMSLNQLMHKKNNVA | DLVERET | QQYHRLPLS | 0.62 0.37 0.35 0.49 0.36 0.47 | 3 of 18 (2.82) |
| HMSMLTLGGMRMRNSVA | QMTTREN | QQYDRLPLA | n.d. n.d. n.d. n.d. n.d. n.d. | 0 of 18 |
| KIGMTLNQLMHQKNNVA | DLVQREN | QQYFRLPLS | 0.76 0.55 0.63 1.02 1.09 1.37 | 0 of 18 |